Screening data as filed in PubChem.
miR-21 reporter: raises the signal of a miR-21 reporter | HeLa miR-21 FLuc reporter, luciferase, 48 h | 340,000 tested, under 10 active | Potency, µM (titrated, usually from 38.3 µM), inactives show at the highest dose reporter change, positive = more light; active = well fitted rising curve with a large enough effect; inconclusive = small, poorly fitted or top-dose-only effect; inactive = no such curve, though single readings can be large or run the other way;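 further: % of control where 0% means no effect; miR-21 action dims this reporter so a rising signal means less miR-21 action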
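Luminescence from a firefly luciferase reporter carrying a miR-21 binding site downstream, stably expressed under a CMV promoter in HeLa cells that make miR-21 endogenously, reports miRNA modulation after 48 h compound exposure up to approximately 40uM final.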
G9a block: G9a (human) methyltransferase inhibition; actives 8.8% (n = 350,000); G9a H3K9 monomethylation, AlphaScreen, 2 h; AID 504332; Q96KQ7; Potency, µM (highest dose often 102 µM), for the others: at the top dose activity, negative = inhibition, usual class: inhibitors; also: potency is read from the fitted curve at half-maximal effect; % is scaled to controls: 0 for no effect and ±100 for the full control effect; nearly all actives have a fitted effect of over 75% in size
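Chemiluminescent proximity detection of H3K9 monomethylation, read after 10 min bead incubation in the dark. Reaction: 20 nM G9a, 500 nM biotin-H3K9 peptide, 20 uM SAM cofactor, 2 h, room temperature, following 15 min enzyme-compound preincubation.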
KDM4E inh: inhibitors of human JMJD2E histone demethylase; JMJD2E catalytic domain, FDH-coupled NADH fluorescence (FDH is formaldehyde dehydrogenase); actives 1.6% (n = 230,000); B2RXH2; AID 2147; Potency, µM (highest dose often 57.1 µM), without a hit: at the highest dose activity change, negative = inhibition, most hits filed as inhibitors; active = well fitted inhibition curve with a large enough effect, not every such curve was filed as active; inconclusive = small, poorly fitted or top-dose-only effect, or another doubt; inactive = no such curve, though single readings can be large or run the other way;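 also: potency is read from the fitted curve at half-maximal effect; 0% = wells with enzyme and -100% = buffer wells without enzyme; nearly all actives have a fitted effect of over 50% in size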
Sfp PPTase inh: inhibitors of Bacillus subtilis Sfp phosphopantetheinyl transferase. Q9F4F7. Biochemical Sfp PPTase activity, qHTS. Potency, µM, inactives show max response, negative = inhibition, most hits filed as inhibitors. 3.5% of 310,000 active. AID 1490; active = well fitted inhibition curve with a large enough effect; inconclusive = small, poorly fitted or top-dose-only effect, or another doubt; inactive = no such curve, though single readings can be large or run the other way;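 also: the enzyme is Sfp with the accession as filed and its product quenches rhodamine fluorescence; potency is read from the fitted curve at half-maximal effect; 0% = enzyme reaction without inhibitor and -100% = no enzyme wells; top concentration of the series not given in the record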
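After 15 min at room temperature with compound, 15 nM Sfp received 5 uM rhodamine-CoA plus 12.5 uM BHQ-2-ybbR (50 mM Hepes pH 7.6, 10 mM MgCl2). Rate came from the fluorescence difference over 30 min, ex 525/em 598 nm.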
LMNA splice mod: changes lamin A minigene splicing in HeLa cells; AID 1487; HeLa LMNA splicing GFP/RFP minigene ratio, 48 h; Potency, µM (top dose mostly 46.1 µM), without a hit: top-dose ratio change, negative = inhibition, hits mostly inhibitors; actives 0.01% (n = 200,000); active = well fitted inhibition curve with a large enough effect in the signal ratio, with a control signal flat, not every such curve was filed as active; inconclusive = small, poorly fitted or top-dose-only effect, or effect the other way, or a change in a side signal; the % refers to the signal ratio; also: potency is read from the fitted curve at half-maximal effect; % is scaled to controls: 0 for no effect and ±100 for the full control effect
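S3 HeLa cells stably expressing lamin A-EGFP splicing minigene plus DsRed2, 600 cells/well, 48 h compound exposure at 37C. Laser-scanning cytometry; analysed as GFP (500-530 nm)/RFP (575-640 nm) total intensity ratio; 0.5% DMSO vehicle.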
ALDH1A1 inh: blocks purified human ALDH1A1 activity. Purified ALDH1A1, NADH fluorescence, propionaldehyde substrate. Potency, µM (top dose mostly 75.3 µM), for the others: at the top dose activity, negative = inhibition, usual class: inhibitors. actives 7.3% (n = 220,000). AID 1030; active = well fitted inhibition curve with a large enough effect, not every such curve was filed as active; inconclusive = small, poorly fitted or top-dose-only effect, or another doubt; inactive = no such curve, though single readings can be large or run the other way;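 also: potency is read from the fitted curve at half-maximal effect; plate controls were no enzyme wells and a reference inhibitor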
* hit, by the source's call; ? = inconclusive; nt = not tested or not shown; [ ] = dose if it differs, or a comment. Only some compounds are listed: those with a hit (about 13% of all), similar ones and a draw of the others. Unless noted, calls follow the shape of the dose curve; as a rule, active = well fitted curve in the direction sought with a large enough effect; inconclusive = small, poorly fitted or top-dose-only effect, or another doubt; inactive = no such curve, though single readings can be large; an effect the other way counts as inactive or inconclusive.

SMILES	miR-21 reporter	G9a block	KDM4E inh	Sfp PPTase inh	LMNA splice mod	ALDH1A1 inh
c1ccc(COc2ccc(-c3sc(Nc4ccccc4)n[n+]3-c3ccccc3)cc2)cc1	21%	22µM*	nt	56µM*	nt	nt
O=C(O)c1ccc(-c2sc(Nc3ccccc3)n[n+]2-c2ccccc2)cc1	-19%	nt	nt	50µM*	nt	nt
O=C(O)c1ccc(-c2sc(Nc3ccccc3)n[n+]2-c2ccc(F)cc2)cc1	3%	40µM*	nt	-14%	nt	nt
CCc1ccc(Nc2n[n+](-c3ccccc3)c(-c3ccc(OCc4ccccc4)cc3)s2)cc1	27%	?	nt	-7%	nt	nt
CCNc1nc(CN2CCOCC2)nc2sc3c(c12)CCC3	-16%	-3%[59 µM]	?	19%	-11%	?
O=S(=O)(Nc1nc(CN2CCOCC2)nc2sc3c(c12)CCCC3)c1cc(F)ccc1F	-2%	7%[59 µM]	?	3%	3%	14µM*
Oc1c(C(c2ccccc2F)N2CCC3(CC2)OCCO3)sc2nc(-c3ccco3)nn12 (stereo not drawn)	3%	-3%[59 µM]	nt	nt	34%[46 µM]	nt
CC1(C)CC2CC(C)(CN2C(=O)c2cc(-c3ccc(O)cc3)on2)C1 (stereo not drawn)	1%	-10%[59 µM]	nt	19%	nt	nt
COc1cccc(-c2cc(C(=O)N3CCCCCC3)no2)c1	-20%	-7%[59 µM]	-19%	-19%	-9%	?
Cc1noc(C)c1COc1ccc(C(=O)OCC(=O)N2CC3(C)CC2CC(C)(C)C3)cc1 (stereo not drawn)	3%	10%[12.7 µM]	5%	-5%	-3%	?
COc1cccc(-c2cc(C(=O)O)no2)c1	4%	?	-3%	2%	25%	0.56µM*
COc1cccc(-c2cc(C(=O)N3CC4(C)CC3CC(C)(C)C4)no2)c1 (stereo not drawn)	18%	20%[59 µM]	-9%	-17%	?	13µM*
Cc1noc(C(=O)N2CC3(C)CC2CC(C)(C)C3)c1Cl (stereo not drawn)	0%	18%	-5%	7%	?	18µM*
CN(C)CCCN(C(=O)c1ccc(S(=O)(=O)N2CCCCCC2)cc1)c1nc2c(F)cc(F)cc2s1	nt	45µM*	nt	nt	nt	nt
Cc1ccc2nc(N(CCCN(C)C)C(=O)c3ccc(S(=O)(=O)N4CCOCC4)cc3)sc2c1	-4%	-2%	nt	11%	nt	nt
CCN(CC)CCN(C(=O)c1ccc(S(=O)(=O)N(C)C2CCCCC2)cc1)c1nc2c(C)cccc2s1	17%	-15%	nt	-7%	nt	nt
CC(=O)c1ccc(C(=O)N(CCCN(C)C)c2nc3c(C)c(C)ccc3s2)cc1	-11%	-38%[59 µM]	nt	nt	?	nt
CCOC(=O)N1CCN(S(=O)(=O)c2ccc(C(=O)N(CCCN(C)C)c3nc4cc(OC)ccc4s3)cc2)CC1	nt	56µM*	nt	nt	nt	nt
CCOC(=O)N1CCN(S(=O)(=O)c2ccc(C(=O)N(CCCN(C)C)c3nc4c(C)c(C)ccc4s3)cc2)CC1	nt	50µM*	nt	nt	nt	nt
CCOC(=O)N1CCN(S(=O)(=O)c2ccc(C(=O)N(CCN(C)C)c3nc4c(C)cccc4s3)cc2)CC1	-5%	45µM*	nt	-3%	nt	nt
CCCN1CCN(CCCNC(=O)c2ccc3c(c2)sc2nc(-c4ccc(OC)cc4)cn23)CC1	-10%	-2%[59 µM]	nt	nt	-7%[46 µM]	nt
Cc1ccc2sc(N(CCN(C)C)C(=O)c3ccc(S(=O)(=O)N4CC(C)OC(C)C4)cc3)nc2c1C (stereo not drawn)	-5%	50µM*	nt	-28%	nt	nt
Cc1ccc2sc(N(CCCN(C)C)C(=O)c3ccc(S(=O)(=O)N4CCOCC4)cc3)nc2c1C	nt	50µM*	nt	nt	nt	nt
CCn1ncc(/C=C2/SC(=S)NC2=O)c1C	-35%	50µM*	0%	-11%	?	-13%
CCn1c(C)cc(/C=C2/SC(=S)NC2=O)c1C	-63%	?	5%	10%	-12%	?
CCN(CC)c1ccc(C(=O)NC(=S)Nc2cc(S(=O)(=O)N3CCOCC3)ccc2-n2cncn2)cc1	-2%	-16%[59 µM]	?	-10%	-5%	-6%

4 entries drawn at random from those above:
SMILES	miR-21 reporter	G9a block	KDM4E inh	Sfp PPTase inh	LMNA splice mod	ALDH1A1 inh
CCn1c(C)cc(/C=C2/SC(=S)NC2=O)c1C	-63%	?	5%	10%	-12%	?
Cc1ccc2sc(N(CCN(C)C)C(=O)c3ccc(S(=O)(=O)N4CC(C)OC(C)C4)cc3)nc2c1C (stereo not drawn)	-5%	50µM*	nt	-28%	nt	nt
Cc1ccc2sc(N(CCCN(C)C)C(=O)c3ccc(S(=O)(=O)N4CCOCC4)cc3)nc2c1C	nt	50µM*	nt	nt	nt	nt
CCOC(=O)N1CCN(S(=O)(=O)c2ccc(C(=O)N(CCCN(C)C)c3nc4cc(OC)ccc4s3)cc2)CC1	nt	56µM*	nt	nt	nt	nt
